# Measured affinities in a library of Ab-95 light chain variants

Data: MIT Lincoln Laboratory AlphaSeq set, Engelhart et al. 2022, doi:10.1038/s41597-022-01779-4, as distributed in FLAb.

Target: peptide PDVDLGDISGINAS, taken from heptad repeat 2 (HR2) of SARS-CoV-2 spike.

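Phage display of a naive human antibody library on the peptide gave the parent. The library (AAYL52) carries one to three amino acid substitutions per variant, with no insertions or deletions. In AlphaSeq, yeast of one mating type display the scFv and yeast of the other type display the target. Pairs that bind mate more often; barcode pairs of the diploids are counted by sequencing. A regression on co-assayed BCL2-family reference pairs converts the normalised counts of each replicate to an apparent Kd. The assay was run in three technical replicates.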

Ab-95 is the parent antibody, in scFv form: VH, then the linker GGGGSGGGGSGGGGS, then VL. The heavy chain is unchanged in all variants.
VH: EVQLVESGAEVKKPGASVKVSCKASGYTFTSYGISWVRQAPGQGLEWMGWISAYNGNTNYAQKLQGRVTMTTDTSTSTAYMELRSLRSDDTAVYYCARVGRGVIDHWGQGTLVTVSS
VL: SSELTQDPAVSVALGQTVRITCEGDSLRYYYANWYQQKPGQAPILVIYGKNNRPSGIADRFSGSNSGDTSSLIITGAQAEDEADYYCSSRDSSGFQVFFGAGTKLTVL

Substitutions are numbered in sequence along the VL above, starting at 1 (not Kabat).
All variants listed here change D25 of the VL, counted from its first residue.
Kd is apparent (estimated from mating counts) and averaged on the log scale over replicates with a signal. Smaller is tighter.
A pair that was not seen in any replicate is written "nd"; this usually means weak binding, but a binder can also be missed.

With D25A+N52R+F98C the result was 3.7 µM (3 of 3 replicates). The variant D25L+R90C+V97G showed 420 nM (3 of 3 replicates). With D25H+A32W+F95M the result was 8.6 µM (2 of 3 replicates). With G24D+D25A+Q96F the result was 2.4 µM (2 of 3 replicates). For D25R+A32V+F98C, the assay gave 6.7 µM (3 of 3 replicates). With D25C+A32I+N33T the result was nd (0 of 3 replicates). For E23S+D25P+S89Y, the assay gave 530 nM (3 of 3 replicates). For D25N+Y29F+F95R, the assay gave 170 nM (3 of 3 replicates). With D25S+S88M+R90L the result was 400 µM (1 of 3 replicates).

For D25I+Y30M+S89K, the assay gave 21 µM (1 of 3 replicates). With D25Q+S55W+Q96F the result was 580 nM (3 of 3 replicates). The variant D25K+Y29E showed 93 nM (3 of 3 replicates). The variant D25Q+S26T+G49A showed 34 µM (1 of 3 replicates). For D25Y+D91Y+V97E, the assay gave 21 µM (1 of 3 replicates). With D25P+R28Q+F95V the result was 120 nM (3 of 3 replicates). With D25M+K50W+S92Y the result was 4.8 µM (2 of 3 replicates). The variant D25T+N51M+N52Y showed 4.2 µM (3 of 3 replicates). With D25H+K50P+F95M the result was 150 nM (3 of 3 replicates).

With D25M+N52I+S89C the result was 610 nM (3 of 3 replicates). The variant D25W+S88Q+F98Q showed nd (0 of 3 replicates). With G24C+D25A the result was 1.0 µM (3 of 3 replicates). The variant D25Q+G94I+F95C gave 450 nM (3 of 3 replicates). The variant D25M+P54D gave nd (0 of 3 replicates). For D25S+S93C+Q96Y, the assay gave 15 µM (1 of 3 replicates). The variant D25N+S26D+N52A gave 520 nM (3 of 3 replicates). The variant D25A showed 54 nM (3 of 3 replicates). The variant D25V+P54A+G94R gave 6.9 µM (3 of 3 replicates).

With D25H+Q96W the result was 1.6 µM (3 of 3 replicates). For G24W+D25C+Y29I, the assay gave nd (0 of 3 replicates). With D25L+N33R+F98I the result was nd (0 of 3 replicates). With E23N+D25P+Y29I the result was 480 nM (3 of 3 replicates). The variant D25E+P54E+R90D gave 620 nM (3 of 3 replicates). The variant G24R+D25I+Q96G gave nd (0 of 3 replicates). For D25L+L27M+A32H, the assay gave 71 µM (1 of 3 replicates). With D25M+Y31L+S92R the result was 240 nM (3 of 3 replicates). For D25E+A32V+K50H, the assay gave 500 nM (3 of 3 replicates).

With D25L+Y29E+Y30W the result was 2.6 µM (3 of 3 replicates). With D25A+L27M+N33V the result was 750 nM (3 of 3 replicates). For D25W+D91V+F98I, the assay gave 11 µM (3 of 3 replicates). The variant E23N+D25M+Y29S showed 94 nM (3 of 3 replicates). With D25F+S89Q+V97D the result was 640 nM (3 of 3 replicates). The variant D25M+R53N+S93N showed nd (0 of 3 replicates). The variant D25T+G94H+V97T gave 790 nM (3 of 3 replicates). The variant D25N+Q96T gave 140 nM (3 of 3 replicates). With D25I+S89H+V97M the result was 480 nM (2 of 3 replicates).

The variant D25W+R28A+R90V showed 3.3 µM (2 of 3 replicates). With D25H+N33K+V97A the result was 720 nM (3 of 3 replicates). For D25H+D91H+Q96R, the assay gave 900 nM (3 of 3 replicates). The variant D25T+R53T+S55W showed 11 µM (3 of 3 replicates). For D25Q+S89I, the assay gave 4.3 µM (2 of 3 replicates).

4 of these entries, quoted again:

changes,apparent Kd,detected
D25N+Y29F+F95R,170 nM,3 of 3
D25T+R53T+S55W,11 µM,3 of 3
D25E+P54E+R90D,620 nM,3 of 3
D25T+G94H+V97T,790 nM,3 of 3

Background: pairings of library AAYL52 with three empty control strains gave a value in 28% of cases (median 8.2 µM, 5th percentile 800 nM). Values in that range, when seen in few replicates, are hard to tell from nonspecific mating.